Among the data in PubChem BioAssay AID463190 (Sanford-Burnham Center for Chemical Genomics, 2010) are inhibition values, retold here.

Only a part is listed here, and it is no random draw. Active and inactive are the calls of the source.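 The calls were made as follows: active = inhibition of at least 40%; inactive = the rest.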

The nature of the assay: growth inhibition of tim10-1 ts yeast – luminescence, uHTS, primary screen (AID 463190).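 Also: mutant grown at 25 °C; 0% = DMSO wells with yeast and 100% = wells holding no yeast.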 Particulars: S. cerevisiae tim10-1 ts strain growth, BacTiter-Glo, 24 h; at 20 µM; active compounds read high.
Take `c1nnnn1CCn1cnnn1`: the inhibition was inactive: 3.1%.

Take `CC(C)C(=O)NC(Sc1ccccc1)C(Cl)(Cl)Cl` (stereo not drawn): the inhibition is inactive: 16.7%.

For `O=P(Nc1nccs1)(c1ccccc1)c1ccccc1`, the inhibition was inactive: 3.21%.

Turning to `C(Cc1nn[nH]n1)Cc1nn[nH]n1`, the inhibition was inactive: -2.99%.

`Nc1ccc([As](=O)(O)c2ccc([N+](=O)[O-])cc2)cc1`: the inhibition was inactive: -15.1%.

As for `O=C(OC1CN2CCC1CC2)c1cccc(Cl)c1` (stereo not drawn), the inhibition is inactive: 4.06%.

Turning to `O=[N+]([O-])c1ncn(CCn2cnc([N+](=O)[O-])n2)n1`, the inhibition was inactive: -2.76%.

As for `O=[As](O)(c1ccccc1)c1ccc(O)cc1`, the inhibition was inactive: 1.15%.

With `C[C@H]1OP(=O)(Oc2ccccc2)[C@H](O)[C@H](O)[C@H]1N=[N+]=[N-]` (stereo partly drawn), the inhibition is inactive: -23.3%.

For the compound `O=P(Nc1nc2ccccc2s1)(c1ccccc1)c1ccccc1`, the inhibition is inactive: 3.9%.

In the case of `O=P(Nc1ccccn1)(c1ccc(Br)cc1)c1ccc(Br)cc1`, the inhibition was inactive: 17.3%.

Consider `CN(C)C1(CNC(=O)c2ccc(Cl)c(S(N)(=O)=O)c2)CCCCC1`, for which the inhibition is inactive: 12.8%.

Turning to `CN(C)C(=O)Oc1noc2ccccc12`, the inhibition was inactive: -9.51%.

For `CC(NC(=O)COC(=O)C(O)(c1ccccc1)c1ccccc1)c1ccccc1` (stereo not drawn), the inhibition was inactive: 12.2%.

For `Cc1ccccc1OP(=O)(Nc1ccccn1)Oc1ccccc1C`, the inhibition was inactive: 24.6%.

In the case of `Cc1ccc(OP(=O)(Nc2ccccn2)Oc2ccc(C)cc2)cc1`, the inhibition was inactive: 17.4%.

In the case of `CC(=O)NC(SC(=S)N(CC(C)C)CC(C)C)C(Cl)(Cl)Cl` (stereo not drawn), the inhibition is active: 46.7%.

On to `COC(=O)c1cc2c(s1)N=C(c1ccccc1)N(C)P2(=O)N1CCOCC1` (stereo not drawn), for which the inhibition was inactive: 9.13%.

As to `CCC(=O)N1C2C3N(C(=O)CC)C1C1N(C(=O)CC)C(C(N1C(=O)CC)N3C(=O)CC)N2C(=O)CC`, the inhibition is inactive: 7.25%.

In the case of `O=C(OC1CN2CCC1CC2)c1ccccc1` (stereo not drawn), the inhibition is inactive: 2.47%.

For the compound `CCNC(=S)/N=C(\N)N[N+](=O)[O-]`, the inhibition is inactive: -4.95%.

On to `O=C(NC1CCS(=O)(=O)C1)NP(=S)(Oc1ccccc1)Oc1ccccc1` (stereo not drawn), for which the inhibition was inactive: -4.49%.

With `CCOC(=O)NC(Sc1ccccc1)C(Cl)(Cl)Cl` (stereo not drawn), the inhibition is inactive: 5.42%.

Turning to `Cc1ccc(NP(=O)(Oc2cccc(C)c2)Oc2cccc(C)c2)nc1`, the inhibition is inactive: -14.3%.

Turning to `c1ccc(-c2nn[nH]n2)c(-c2nn[nH]n2)c1`, the inhibition is inactive: 3.16%.

In the case of `CC(=O)Nc1ccc(Oc2c([N+](=O)[O-])cc([N+](=O)[O-])cc2[N+](=O)[O-])cc1`, the inhibition is inactive: 0.28%.

Take `CC(=O)Nc1ccc([As](=O)(O)O)c(O)c1`: the inhibition was inactive: -9.93%.

As for `CC(=O)c1ccc(N2CC2c2ccncc2)cc1` (stereo not drawn), the inhibition is inactive: -4.13%.

For orientation: inhibition means the change of the read-out against control, counted positive when it falls.
